Patent US11576897B2, “Therapeutic agent for non-motor symptoms associated with Parkinson's disease” (priority 2017, dated 2023)
pKi: −log10 of the molar value. Marks after values point to notes of the source that are not given here.

Columns and labels:
[1] = molecular target: human 5-HT2A receptor (Homo sapiens (Human), UniProt P28223); settings: read-out: 5-HT2A receptor binding inhibition constant Ki
[2] = molecular target: serotonin 5-HT2A receptor (Rattus norvegicus (Rat), UniProt P14842); assay: Rat tryptamine-induced forelimb clonic convulsion model; assay type: in vivo; settings: orally or subcutaneously 60 minutes before tryptamine 25 mg/kg intravenously, SD-male rats

SMILES	pKi [1]	Inhibition ratio ([2]; dose 10 mg/kg)	Inhibition ratio ([2]; dose 20 mg/kg)	Inhibition ratio ([2]; dose 30 mg/kg)
CNCc1cc(OCc2cc(F)ccc2F)n(CCC(C)C)n1 [Example 269, 1-{5-[(2,5-difluorobenzyl)oxy]-1-(3-methylbutyl)-1H-pyrazol-3-yl}-N-methylmethanamine]	8.82	–	–	–
CNCc1cc(OCc2cc(F)ccc2F)n(CCC(C)(C)C)n1.O=C(O)CC(O)(CC(=O)O)C(=O)O [Example 502, 1-{5-[(2,5-Difluorobenzyl)oxy]-1-(3,3-dimethylbutyl)-1H-pyrazol-3-yl}-N-methylmethanamine Monocitrate]	–	45%*	65%**	84%**
CNCc1cc(OCc2cc(F)ccc2F)n(CC(C)(C)C)n1 [Example 258, 1-{5-[(2,5-difluorobenzyl)oxy]-1-(2,2-dimethylpropyl)-1H-pyrazol-3-yl}-N-methylmethanamine]	8.12	–	–	–
CNCc1cc(OCc2cc(Cl)ccc2F)n(CC2CC2)n1 [Example 131, 1-{5-[(5-chloro-2-fluorobenzyl)oxy]-1-(cyclopropylmethyl)-1H-pyrazol-3-yl}-N-methylmethanamine]	8.52	–	–	–
